Target: EGFR on BxPC-3 cells (UniProt P00533)
Test: cell-based or functional assay

| *EC50 (pM), TDCC, depletion of luciferized BxPC3 cells with activated T cells [pM] | Substance |
| --- | --- |
| 30.7 | SI-79X5 (bispecific antibody) |
| 24.6 | SI-79X1 (bispecific antibody) |

From patent publication US20250353917A1
